From patent publication US20260125400A1, “TYK2 DEGRADERS AND USES THEREOF” (Kymera Therapeutics, Inc., priority 2023, published 2026)
Like-named read-outs stand apart in the source and are kept apart here.

Chains of the proteins cited; added tags and fusions are not shown.
UniProt P29597, whole entry: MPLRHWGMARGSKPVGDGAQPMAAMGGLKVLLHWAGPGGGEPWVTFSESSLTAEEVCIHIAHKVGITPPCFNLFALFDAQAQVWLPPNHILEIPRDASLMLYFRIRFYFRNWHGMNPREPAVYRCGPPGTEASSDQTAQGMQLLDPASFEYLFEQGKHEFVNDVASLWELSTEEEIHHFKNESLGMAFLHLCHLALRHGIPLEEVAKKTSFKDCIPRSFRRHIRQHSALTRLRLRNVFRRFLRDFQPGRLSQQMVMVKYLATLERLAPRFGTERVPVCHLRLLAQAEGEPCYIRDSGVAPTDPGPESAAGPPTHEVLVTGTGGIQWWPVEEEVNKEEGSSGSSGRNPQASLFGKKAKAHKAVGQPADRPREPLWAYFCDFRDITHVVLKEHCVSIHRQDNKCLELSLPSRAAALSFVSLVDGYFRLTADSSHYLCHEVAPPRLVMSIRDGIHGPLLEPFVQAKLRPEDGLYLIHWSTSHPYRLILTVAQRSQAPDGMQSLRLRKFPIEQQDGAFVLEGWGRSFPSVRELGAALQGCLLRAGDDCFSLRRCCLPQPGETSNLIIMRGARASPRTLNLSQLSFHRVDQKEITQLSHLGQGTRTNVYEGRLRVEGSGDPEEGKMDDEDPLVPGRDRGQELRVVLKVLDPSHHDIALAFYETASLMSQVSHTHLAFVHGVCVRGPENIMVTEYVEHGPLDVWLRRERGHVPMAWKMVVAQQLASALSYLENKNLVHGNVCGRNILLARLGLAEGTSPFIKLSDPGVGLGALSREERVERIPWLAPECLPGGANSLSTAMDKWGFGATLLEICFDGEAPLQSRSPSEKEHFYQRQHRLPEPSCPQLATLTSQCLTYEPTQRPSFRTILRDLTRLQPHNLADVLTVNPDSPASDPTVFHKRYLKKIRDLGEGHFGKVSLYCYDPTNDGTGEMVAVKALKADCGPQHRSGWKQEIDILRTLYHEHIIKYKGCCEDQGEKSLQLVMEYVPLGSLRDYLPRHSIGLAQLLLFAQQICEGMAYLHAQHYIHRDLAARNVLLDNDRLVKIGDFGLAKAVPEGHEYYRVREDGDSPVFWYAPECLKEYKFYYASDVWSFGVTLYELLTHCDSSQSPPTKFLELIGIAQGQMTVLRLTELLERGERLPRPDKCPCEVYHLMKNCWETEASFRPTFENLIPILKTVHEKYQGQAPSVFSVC

Molecular target: TYK2 (Homo sapiens, UniProt P29597)
Test: TYK2 MSD degradation in OCI-LY10 cells
Settings: for TYK2 MSD OCI-LY10 Dmax %: 4 to 24 hours incubation
[1] = TYK2 degradation in OCI-LY10 cells
[2] = read-out: TYK2 MSD OCI-LY10 Rel-DC50, TYK2 degradation in OCI-LY10 cells, 4 to 24 hours incubation
[3] = read-out: TYK2 MSD OCI-LY10 Rel-DC50, OCI-LY10 cells, 4 to 24 hours incubation

SMILES | TYK2 MSD OCI-LY10 Dmax % [1] | DC50 [2] [nM] | TYK2 MSD OCI-LY10 Dmax % (OCI-LY10 cells) | DC50 [3] [nM]
CNc1cc(N2CCc3c(-c4ncc(CN5CC6(CCN(C(=O)c7cc(N8CCC(=O)NC8=O)c(Cl)c(C)n7)CC6(F)F)C5)cc4F)cccc32)nn2c(C(=O)N[C@@H]3CC[C@H]3OC)cnc12 | A (A (>90%)) | < 1 | – | –
CNc1cc(N2CCc3c(-c4cc(CN5CCN(Cc6ccc(C7CCC(=O)NC7=O)c(Cl)c6)CC5)ccn4)cccc32)nn2c(C(=O)N[C@@H]3C[C@@H]3F)cnc12 (stereo partly shown) | – | – | D (D (<50%)) | > 100
CNc1cc(N2CCc3c(CN4CCC(N5CCC6(CCN(C(=O)c7cc(N8CCC(=O)NC8=O)c(Cl)cn7)CC6)CC5)C(F)(F)C4)cc(F)cc32)nn2c(C(=O)N[C@@H]3CC[C@H]3OC)cnc12 (stereo partly shown) | A (A (>90%)) | < 1 | – | –
CNc1cc(N2CCc3c(-c4ccc(N5CCC6(CC5)CN(C(=O)c5ccc(N7CCC(=O)NC7=O)c(Cl)c5)C6)cn4)cccc32)nn2c(C(=O)N[C@@H]3C[C@@H]3F)cnc12 | – | – | D (D (<50%)) | < 10
CNc1cc(N2CCc3c(N4CCN(CCN5CCN(C(=O)c6ccc(Cl)c(N7CCC(=O)NC7=O)c6)CC5)CC4)cccc32)nn2c(C(=O)NC3CC3F)cnc12 (stereo not shown) | D (D (<50%)) | > 100 | – | –
CNc1cc(N2CCc3c(CN4CCC(N5CCC6(CCN(C(=O)c7cc(Cl)c(C)c(N8CCC(=O)NC8=O)c7)CC6)CC5)C(F)(F)C4)cccc32)nn2c(C(=O)N[C@@H]3CC[C@H]3OC)cnc12 (stereo partly shown) | – | – | A (A (>90%)) | < 1
CNc1cc(N2CCc3c(N4CCN(CC5CC6(CCN(Cc7ccc(Cl)c(C8CCC(=O)NC8=O)c7)CC6)C5)CC4)cccc32)nn2c(C(=O)N[C@@H]3C[C@@H]3F)cnc12 (stereo partly shown) | – | – | D (D (<50%)) | > 100
CNc1cc(N2CCc3c(-c4ncc(CN5CC6(CCN(C(=O)c7cc(N8CCC(=O)NC8=O)c(Cl)cn7)CC6(F)F)C5)cc4F)cccc32)nn2c(C(=O)N[C@@H]3C[C@@H]3F)cnc12 | B (B (90 to >75%)) | < 1 | – | –
COC1(c2cc(C)cc(-c3cn(CCC4CCN(CC5CCN(c6ccc7c(c6)n(C)c(=O)n7C6CCC(=O)NC6=O)CC5)CC4)c4cnc(NC(C)=O)cc34)n2)CCOC1 (stereo not shown) | B (B (90 to >75%)) | < 1 | – | –
CNc1cc(N2CCc3c(CN4CCC(OC5CC6(CCN(C(=O)c7cc(N8CCC(=O)NC8=O)c(Cl)c(C)n7)CC6)C5)CC4)cccc32)nn2c(C(=O)N[C@@H]3CC[C@H]3OC)cnc12 | A (A (>90%)) | < 1 | – | –
CNc1cc(N2CCc3c(-c4cnc(CN5CCC6(CCN(C(=O)c7cc(C)c(Cl)c(N8CCC(=O)NC8=O)c7)CC6)C(F)(F)C5)cn4)cccc32)nn2c(C(=O)N[C@@H]3CC[C@H]3OC)cnc12 | B (B (90 to >75%)) | < 10 | – | –
CNc1cc(N2CCc3c(-c4ncc(CN5CC6(CCN(C(=O)c7cc(Cl)c(C)c(N8CCC(=O)NC8=O)c7)CC6(F)F)C5)cc4F)cccc32)nn2c(C(=O)N[C@@H]3CC[C@H]3F)cnc12 | A (A (>90%)) | < 1 | – | –
CNc1cc(N2CCc3c(CN4CC[C@H](N5CCC6(CCN(C(=O)c7ccc(Cl)c(N8CCC(=O)NC8=O)c7)CC6)CC5)C(F)(F)C4)cc(F)cc32)nn2c(C(=O)N[C@@H]3CC[C@H]3OC)cnc12 | A (A (>90%)) | < 1 | – | –
CNc1cc(N2CCc3c(-c4cc(CN5CCN(c6ccc7c(c6)n(C)c(=O)n7C6CCC(=O)NC6=O)CC5)ccn4)cccc32)nn2c(C(=O)N[C@@H]3CC[C@H]3OC)cnc12 (stereo partly shown) | B (B (90 to >75%)) | < 1 | – | –
CNc1cc(N2CCc3c(-c4ccc(CN5CCC6(CCN(C(=O)c7ccc(Cl)c(N8CCC(=O)NC8=O)c7)CC6)C(F)(F)C5)nn4)cccc32)nn2c(C(=O)N[C@@H]3C[C@@H]3F)cnc12 | A (A (>90%)) | < 1 | – | –
CNc1cc(N2CCc3c(-c4ncc(CN5CC6(CCN(C(=O)c7cc(N8CCC(=O)NC8=O)c(C)cn7)CC6(F)F)C5)cc4F)cccc32)nn2c(C(=O)N[C@@H]3CC[C@H]3OC)cnc12 | A (A (>90%)) | < 1 | – | –
CCNC(=O)c1nnc(Nc2ccc(CN3CCC4(CN(c5cccc6c5n(C)c(=O)n6C5CCC(=O)NC5=O)C4)C(F)(F)C3)cn2)cc1Nc1cccc(F)c1OC (stereo not shown) | D (D (<50%)) | > 100 | – | –
CNc1cc(N2CCc3c(CN4CCC(N5CCC6(CCN(C(=O)c7cc(N8CCC(=O)NC8=O)c(Cl)cn7)CC6)CC5)C(F)(F)C4)cccc32)nn2c(C(=O)N[C@@H]3CC[C@H]3OC)cnc12 (stereo partly shown) | B (B (90 to >75%)) | < 1 | – | –
CNc1cc(N2CCc3c(CN4CC[C@H](N5CCC6(CCN(C(=O)c7cc(C)c(Cl)c(N8CCC(=O)NC8=O)c7)CC6)CC5)C(F)(F)C4)cccc32)nn2c(C(=O)N[C@@H]3CC[C@H]3OC)cnc12 | A (A (>90%)) | < 1 | – | –
CNc1cc(N2CCc3c(CN4CCC(N5CCC6(CC5)CN(C(=O)c5cc(C)c(Cl)c(N7CCC(=O)NC7=O)c5)C6)C(F)(F)C4)cccc32)nn2c(C(=O)N[C@@H]3CC[C@H]3OC)cnc12 (stereo partly shown) | A (A (>90%)) | < 1 | – | –
CCNC(=O)c1nnc(Nc2ccc(CN(C)C3CCN(c4cccc5c4n(C)c(=O)n5C4CCC(=O)NC4=O)CC3(F)F)cn2)cc1Nc1cccc(F)c1OC (stereo not shown) | D (D (<50%)) | > 100 | – | –
CNc1cc(N2CCc3c(-c4cc(CN5CCN(Cc6ccc(Cl)c(C7CCC(=O)NC7=O)c6)CC5)ccn4)cccc32)nn2c(C(=O)N[C@@H]3C[C@@H]3F)cnc12 (stereo partly shown) | D (D (<50%)) | > 100 | – | –
CO[C@@]1(c2cc(CN3CCC(CCN4CCN(C(=O)c5ccc(Cl)c(N6CCC(=O)NC6=O)c5)CC4)CC3)cc(-c3cn(C)c4cnc(NC(C)=O)cc34)n2)CCOC1 | D (D (<50%)) | > 100 | – | –
CNc1cc(N2CC3(CCN(CCC4CCN(c5ccc6c(c5)n(C)c(=O)n6C5CCC(=O)NC5=O)CC4)CC3)c3ccccc32)nn2c(C(=O)NC3CC3)cnc12 (stereo not shown) | D (D (<50%)) | > 100 | – | –
CNc1cc(N2CCc3c(CC4CCN(C5CCN(C6CCN(C(=O)c7ccc(Cl)c(N8CCC(=O)NC8=O)c7)CC6)CC5(F)F)CC4)cccc32)nn2c(C(=O)N[C@@H]3C[C@@H]3F)cnc12 (stereo partly shown) | – | – | B (B (90 to >75%)) | < 10
CO[C@@]1(c2cc(C)cc(-c3cn(C4CCN(CC5CCN(c6ccc(NC7CCC(=O)NC7=O)cc6F)CC5)CC4)c4cnc(NC(C)=O)cc34)n2)CCOC1 (stereo partly shown) | D (D (<50%)) | > 100 | – | –
CO[C@@]1(c2cc(C)cc(-c3cn(C4CCN(CC5CCN(c6cccc7c6n(C)c(=O)n7C6CCC(=O)NC6=O)CC5)CC4)c4cnc(NC(C)=O)cc34)n2)CCOC1 (stereo partly shown) | A (A (>90%)) | < 1 | – | –
CNc1cc(N2CCc3c(-c4ccc(CN5CCN(Cc6ccc(Cl)c(C7CCC(=O)NC7=O)c6)CC5)cn4)cccc32)nn2c(C(=O)N[C@@H]3C[C@@H]3F)cnc12 (stereo partly shown) | D (D (<50%)) | < 10 | – | –
CO[C@]1(c2cc(-c3ccc(CN4CC5(CCN(C(=O)c6ccc(Cl)c(N7CCC(=O)NC7=O)c6)CC5)C4)cn3)cc(-c3cn(C)c4cnc(NC(C)=O)cc34)n2)CCOC1 | B (B (90 to >75%)) | < 1 | – | –
